Calls of active or inactive are those of the source.
Experiments:
Type in all cases: functional, organism-based
[1] = tested on: Rattus norvegicus; assay: In vivo anti-inflammatory efficacy in cigarette-smoke/LPS-induced COPD Sprague-Dawley rat model assessed as reversal of pulmonary pathological changes at 400 microg/kg, inhalation measured after 28 days treatment by hematoxylin and eosin staining based assay; conditions: dose 400.0 µg/kg, route inh, time 28.0 day
[2] = tested on: Rattus norvegicus; assay: In vivo anti-inflammatory efficacy in cigarette-smoke/LPS-induced COPD Sprague-Dawley rat model assessed as decrease in TNFalpha in serum at 400 microg/kg, inhalation measured after 28 days treatment; conditions: dose 400.0 µg/kg, route inh, time 28.0 day
[3] = tested on: Rattus norvegicus; assay: In vivo anti-inflammatory efficacy in cigarette-smoke/LPS-induced COPD Sprague-Dawley rat model assessed as decrease in IL-6 in serum at 400 microg/kg, inhalation measured after 28 days treatment; conditions: dose 400.0 µg/kg, route inh, time 28.0 day
[4] = tested on: Rattus norvegicus; assay: In vivo anti-inflammatory efficacy in cigarette-smoke/LPS-induced COPD Sprague-Dawley rat model assessed as decrease in IL-1beta in serum at 400 microg/kg, inhalation measured after 28 days treatment; conditions: dose 400.0 µg/kg, route inh, time 28.0 day
[5] = tested on: Rattus norvegicus; assay: In vivo anti-inflammatory efficacy in cigarette-smoke/LPS-induced COPD Sprague-Dawley rat model assessed as decrease in IL-6 in broncho-alveolar lavage fluid at 400 microg/kg, inhalation measured after 28 days treatment; conditions: Serum, dose 400.0 µg/kg, route inh, time 28.0 day
[6] = tested on: Rattus norvegicus; assay: In vivo anti-inflammatory efficacy in cigarette-smoke/LPS-induced COPD Sprague-Dawley rat model assessed as decrease in TNFalpha in broncho-alveolar lavage fluid at 400 microg/kg, inhalation measured after 28 days treatment; conditions: Serum, dose 400.0 µg/kg, route inh, time 28.0 day
[7] = tested on: Rattus norvegicus; assay: In vivo anti-inflammatory efficacy in cigarette-smoke/LPS-induced COPD Sprague-Dawley rat model assessed as decrease in IL-1beta in broncho-alveolar lavage fluid at 400 microg/kg, inhalation measured after 28 days treatment; conditions: Serum, dose 400.0 µg/kg, route inh, time 28.0 day
[8] = tested on: Rattus norvegicus; assay: In vivo anti-inflammatory efficacy in cigarette-smoke/LPS-induced COPD Sprague-Dawley rat model assessed as decrease in IL-6 in lung tissue at 400 microg/kg, inhalation measured after 28 days treatment; conditions: Serum, dose 400.0 µg/kg, route inh, time 28.0 day
[9] = tested on: Rattus norvegicus; assay: In vivo anti-inflammatory efficacy in cigarette-smoke/LPS-induced COPD Sprague-Dawley rat model assessed as decrease in TNFalpha in lung tissue at 400 microg/kg, inhalation measured after 28 days treatment; conditions: Serum, dose 400.0 µg/kg, route inh, time 28.0 day
[10] = tested on: Rattus norvegicus; assay: In vivo anti-inflammatory efficacy in cigarette-smoke/LPS-induced COPD Sprague-Dawley rat model assessed as decrease in IL-1beta in lung tissue at 400 microg/kg, inhalation measured after 28 days treatment; conditions: Serum, dose 400.0 µg/kg, route inh, time 28.0 day
[11] = tested on: Rattus norvegicus; assay: In vivo anti-inflammatory efficacy in cigarette-smoke/LPS-induced COPD Sprague-Dawley rat model assessed as decrease in eosinophils in lung tissue at 400 microg/kg, inhalation measured after 28 days treatment; conditions: dose 400.0 µg/kg, route inh, time 28.0 day
[12] = tested on: Rattus norvegicus; assay: In vivo anti-inflammatory efficacy in cigarette-smoke/LPS -induced COPD Sprague-Dawley rat model assessed as decrease in neutrophils in lung tissue at 400 microg/kg, inhalation measured after 28 days treatment; conditions: dose 400.0 µg/kg, route inh, time 28.0 day
[13] = tested on: Rattus norvegicus; assay: In vivo anti-inflammatory efficacy in cigarette-smoke/LPS -induced COPD Sprague-Dawley rat model assessed as decrease in lymphocytes in lung tissue at 400 microg/kg, inhalation measured after 28 days treatment; conditions: dose 400.0 µg/kg, route inh, time 28.0 day
[14] = tested on: Rattus norvegicus; assay: In vivo anti-inflammatory efficacy in cigarette-smoke/LPS -induced COPD Sprague-Dawley rat model assessed as decrease in total count of white blood cells in lung tissue at 400 microg/kg, inhalation measured after 28 days treatment; conditions: dose 400.0 µg/kg, route inh, time 28.0 day

Measured: Activity

OCc1cc(C(O)CNCCCCCCOCCCCc2ccccc2)ccc1O (centres undefined)
active: all assays above

Source: ChEMBL document CHEMBL5528055, “Discovery and Identification of Novel 5-Hydroxy-4H-benzo[1,4]oxazin-3-one Derivatives as Potent β2-Adrenoceptor Agonists through Structure-Based Design, Synthesis, and Biological Evaluation” (J Med Chem, 2024)
